US20220296583A1, “COMPOSITIONS AND METHODS FOR TREATMENT OF OVARIAN AND BREAST CANCER” (Board of Regents, The University of Texas System, priority 2021, published 2022)

Tests used:
OVCAR8 xenograft = test: OVCAR8 i.p. xenograft, Compound B and carboplatin; type: in vivo, mice; details: Compound B 50 mg/kg orally five days a week, carboplatin 25 mg/kg i.p. once a week, three weeks, p<0.05
Procedure: After treatment as indicated in (A) for three weeks, mice were weighed, and intraperitoneal nodules were excised and weighed. […] Mice were treated with single, double, or triple agents for 6 weeks. Tumor was measured once a week until the tumor burden in control group reached maximum allowance. The graphs indicate the mean±standard deviation. Statistical significance is indicated by *p<0.05, **p<0.01, and ***p<0.0001.
Six-week-old female athymic nu/nu mice were purchased from Envigo. Experiments were reviewed and all procedures were performed according to an animal protocol approved by the Institutional Animal Care and Use Committee of UT MD Anderson Cancer Center. […] Carboplatin was administrated i.p. once a week at a dose of 25 mg/kg. […] Carboplatin was treated at a dose of 30 mg/kg once a week for six weeks. […] At end of six weeks, the mice were sacrificed by CO2. The mice were dissected immediately after death and the tumors were collected and weighed.
OVCAR8 cells were injected intraperitoneally (ip) into nu/nu mice. Treatment started 7 days post injection. […] At the conclusion of the treatment, the mice were sacrificed, and the tumor was dissected and weighed (FIG. 23A). […] The tumor volume was measured at indicated time points (FIG. 23D).

MAXF Hs 578T [1] = system: MAXF Hs 578T
MAXF MDA-MB-231 [2] = system: MAXF MDA-MB-231
MAXF Hs 578T [3] = system: MAXF Hs 578T; remark: listed apart in the source
MAXF MDA-MB-231 [4] = system: MAXF MDA-MB-231; remark: listed apart in the source
[5] = Table 13, 3.2E−03 μM (first column)
[6] = Table 13, 3.2E−03 μM (third column)

In the case of `COc1c(F)cc(F)cc1-c1c[nH]c2ncc(-c3cnn(C4CCN(S(C)(=O)=O)CC4)c3)cc12` [Compound B, 3-(3,5-difluoro-2-methoxyphenyl)-5-(1-(1-(methylsulfonyl)piperidin-4-yl)-1H-pyrazol-4-yl)-1H-pyrrolo[2,3-b]pyridine], the “tumor growth (tumor weight)” value (OVCAR8 xenograft) is reported as “significantly enhanced the growth inhibitory effect of carboplatin”, the “Test/Control (%) at drug Concentration [μM]” value (from here on “Test/Control (%)”) (MAXF 401; 1.0E+00 μM) is reported as 104% and the “Test/Control (%)” value (MAXF 401; 1.0E+01 μM) is reported as 79%. For the same compound, the “Test/Control (%)” value (MAXF 401; 1.0E+02 μM) was 52%, the “Test/Control (%)” value (MAXF BT-474; 1.0E+00 μM) was 91% and the “Test/Control (%)” value (MAXF BT-474; 1.0E+01 μM) was 78%. For the same compound, the “Test/Control (%)” value (MAXF BT-474; 1.0E+02 μM) was 52%, the “Test/Control (%)” value (MAXF BT-549; 1.0E+00 μM) was 88% and the “Test/Control (%)” value (MAXF BT-549; 1.0E+01 μM) was 54%. For the same compound, the “Test/Control (%)” value (MAXF BT-549; 1.0E+02 μM) was 27%, the “Test/Control (%)” value (MAXF Hs 578T [1]; 1.0E+00 μM) was 98% and the “Test/Control (%)” value (MAXF Hs 578T [1]; 1.0E+01 μM) was 40%. For the same compound, the “Test/Control (%)” value (MAXF Hs 578T [1]; 1.0E+02 μM) was 5%, the “Test/Control (%)” value (MAXF MCF7; 1.0E+00 μM) was 92% and the “Test/Control (%)” value (MAXF MCF7; 1.0E+01 μM) was 76%. The “Test/Control (%)” value (MAXF MCF7; 1.0E+02 μM) was 59%, the “Test/Control (%)” value (MAXF MCF 10A; 1.0E+00 μM) was 121% and the “Test/Control (%)” value (MAXF MCF 10A; 1.0E+01 μM) was 116%. The “Test/Control (%)” value (MAXF MCF 10A; 1.0E+02 μM) was 74%, the “Test/Control (%)” value (MAXF MDA-MB-231 [2]; 1.0E+00 μM) was 86% and the “Test/Control (%)” value (MAXF MDA-MB-231 [2]; 1.0E+01 μM) was 56%. The “Test/Control (%)” value (MAXF MDA-MB-231 [2]; 1.0E+02 μM) was 42%, the “Test/Control (%)” value (MAXF MDA-MB-453; 1.0E+00 μM) was 80% and the “Test/Control (%)” value (MAXF MDA-MB-453; 1.0E+01 μM) was 56%. For the same compound, the “Test/Control (%)” value (MAXF MDA-MB-453; 1.0E+02 μM) was 33%, the “Test/Control (%)” value (MAXF MDA-MB-468; 1.0E+00 μM) was 104% and the “Test/Control (%)” value (MAXF MDA-MB-468; 1.0E+01 μM) was 87%. For the same compound, the “Test/Control (%)” value (MAXF MDA-MB-468; 1.0E+02 μM) was 43%, the “Test/Control (%)” value (MAXF MX1; 1.0E+00 μM) was 127% and the “Test/Control (%)” value (MAXF MX1; 1.0E+01 μM) was 118%. The “Test/Control (%)” value (MAXF MX1; 1.0E+02 μM) was 114%, the “Test/Control (%)” value (MAXF SK-BR-3; 1.0E+00 μM) was 106% and the “Test/Control (%)” value (MAXF SK-BR-3; 1.0E+01 μM) was 95%. For the same compound, the “Test/Control (%)” value (MAXF SK-BR-3; 1.0E+02 μM) was 72%, the “Test/Control (%)” value (MAXF T47D; 1.0E+00 μM) was 89% and the “Test/Control (%)” value (MAXF T47D; 1.0E+01 μM) was 76%. The “Test/Control (%)” value (MAXF T47D; 1.0E+02 μM) was 62%, the “Test/Control (%)” value (MAXF ZR-75-1; 1.0E+00 μM) was 100% and the “Test/Control (%)” value (MAXF ZR-75-1; 1.0E+01 μM) was 100%. The “Test/Control (%)” value (MAXF ZR-75-1; 1.0E+02 μM) was 94%, the “Test/Control (%)” value (MAXF Hs 578T [3]; Table 13, 1.0E+00 μM) was 97% and the “Test/Control (%)” value (MAXF Hs 578T [3]; Table 13, 1.0E+01 μM) was 64%. For the same compound, the “Test/Control (%)” value (MAXF Hs 578T [3]; Table 13, 1.0E+02 μM) was 19%, the “Test/Control (%)” value (MAXF Hs 578T [3]; Table 13, 1.0E−01 μM) was 97% and the “Test/Control (%)” value (MAXF Hs 578T [3]; Table 13, 1.0E−02 μM) was 101%. The “Test/Control (%)” value (MAXF Hs 578T [3]; Table 13, 3.2E+00 μM) was 92%, the “Test/Control (%)” value (MAXF Hs 578T [3]; Table 13, 3.2E+01 μM) was 36% and the “Test/Control (%)” value (MAXF Hs 578T [3]; Table 13, 3.2E−01 μM) was 98%. For the same compound, the “Test/Control (%)” value (MAXF Hs 578T [3]; [5]) was 101%, the “Test/Control (%)” value (MAXF Hs 578T [3]; [6]) was 99% and the “Test/Control (%)” value (MAXF MDA-MB-231 [4]; Table 13, 1.0E+00 μM) was 103%. For the same compound, the “Test/Control (%)” value (MAXF MDA-MB-231 [4]; Table 13, 1.0E+01 μM) was 80%, the “Test/Control (%)” value (MAXF MDA-MB-231 [4]; Table 13, 1.0E+02 μM) was 40% and the “Test/Control (%)” value (MAXF MDA-MB-231 [4]; Table 13, 1.0E−01 μM) was 103%. For the same compound, the “Test/Control (%)” value (MAXF MDA-MB-231 [4]; Table 13, 1.0E−02 μM) was 104%, the “Test/Control (%)” value (MAXF MDA-MB-231 [4]; Table 13, 3.2E+00 μM) was 95% and the “Test/Control (%)” value (MAXF MDA-MB-231 [4]; Table 13, 3.2E+01 μM) was 77%. For the same compound, the “Test/Control (%)” value (MAXF MDA-MB-231 [4]; Table 13, 3.2E−01 μM) was 103%, the “Test/Control (%)” value (MAXF MDA-MB-231 [4]; [5]) was 102% and the “Test/Control (%)” value (MAXF MDA-MB-231 [4]; [6]) was 105%.

Like-named read-outs stand apart in the source and are kept apart here.
